# Antibody variant affinities, Ab-14 heavy chain, assay B

Data: MIT Lincoln Laboratory AlphaSeq set, Li et al. 2023, doi:10.1038/s41467-023-39022-2, as distributed in FLAb.

The target is the same throughout: PDVDLGDISGINAS, from the HR2 region of SARS-CoV-2 spike.

The variants keep the light chain, the linker and the frameworks of Ab-14 (scFv order VH, a (GGGGS)3 linker, VL).
VH: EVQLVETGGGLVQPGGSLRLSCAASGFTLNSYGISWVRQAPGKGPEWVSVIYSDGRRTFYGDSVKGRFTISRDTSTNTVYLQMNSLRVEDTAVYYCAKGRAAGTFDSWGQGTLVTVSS
VL: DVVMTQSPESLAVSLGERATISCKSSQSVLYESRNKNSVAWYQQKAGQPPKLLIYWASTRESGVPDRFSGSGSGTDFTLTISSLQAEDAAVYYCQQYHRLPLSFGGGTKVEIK

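Phage display of a naive human antibody library on the peptide gave the parent. This is the validation round: designs drawn from the data on random variants, tested in the same kind of assay. Several design methods are mixed in this list. The assay is AlphaSeq: two haploid yeast populations carry antibody and antigen on their surface. The frequency of each diploid, read from paired DNA barcodes, reflects how well the two displayed proteins bind. The ratio of observed to expected reads was calibrated, replicate by replicate, on BCL2-family standards whose Kd was known from biolayer interferometry. There are six technical replicates.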

The parent's heavy chain CDRs are GFTLNSYGIS, VIYSDGRRTFYGDSVK, GRAAGTFDS; each variant's own CDRs replace them letter for letter. Scale: log10 of Kd in nM, estimated from mating counts; low values are strong binders. Averages over replicates are reported, and they cover detected replicates only. Where no diploid with the target was found in any replicate, the entry reads "no signal": below detection, most likely a poor binder, though not proof of it. The authors' rule: three or more of the six replicates give a measured affinity, fewer mean a poor binder.

CDR-H1 | CDR-H2 | CDR-H3 | log10 Kd (nM), mean | seen in | signal with controls
GKDLDEYGIS | VIYADGRRTFALNTVK | GEIGGDLNM | no signal | 0 of 6 | 0 of 18
GFTMNSYGIS | VIYSDGRRHFYGDSVK | GRAAGTFDS | no signal | 0 of 6 | 0 of 18
GFDLNEYGIS | VIYADGMRTAYVDDVK | GNVAGTFDQ | 1.39 | 5 of 6 | 0 of 18
GFSLNSYGIS | VIYSDGRRTFYTDSVK | GQAAGTFDL | 0.13 | 6 of 6 | 0 of 18
GFELNSYGIS | VIYSDGRRTFYGDQVK | GRNAGTFDS | 0.70 | 1 of 6 | 0 of 18
GFDLDEYGIS | VIYADGMRTAYADKVK | GNEAGTFDV | -0.41 | 6 of 6 | 1 of 18
GFTLNSYGIS | VIYSDGRRTFYSDSVK | GRHAGTFDT | 1.51 | 2 of 6 | 0 of 18
GFTLESYGIS | VIYSDGRRTFYSDSVK | GQAGGTFDS | 1.76 | 1 of 6 | 0 of 18
GFNLNEYGIS | VIYADGRRTAYADSVK | GEHAGTFDI | -1.12 | 6 of 6 | 0 of 18
GFQLNSYGIS | VIYSDGRRTFYGDSVK | GKTAGTFDF | 1.46 | 5 of 6 | 0 of 18
GFTLNMYGIS | VIYDDGRRTFYGDSVK | GRAAGTFPS | no signal | 0 of 6 | 0 of 18
GFSLNSYGIS | VIYSDGRRTFYVDSVK | GQAAGTFDS | 0.55 | 6 of 6 | 1 of 18
GFDLDQYGIS | VIYADGSRSYYADSVK | GHEGGILYV | no signal | 0 of 6 | 0 of 18
GFTLNSYGIS | VIYSDGRRTFYGDSVE | GRASGTFDT | 2.69 | 1 of 6 | 0 of 18
GFDLDEYGIS | VIYADGKRTAYSDDVK | GENAGTFDV | 0.00 | 6 of 6 | 0 of 18
GFDLNEYGIS | VIYADGVRTSYADSVK | GEVAGTFDL | -1.16 | 3 of 6 | 0 of 18
GFSLNSYGIS | VIYSDGRRTAYMDSVK | GRAAGTFDS | 0.15 | 6 of 6 | 2 of 18
GFDLNDYGIS | VIYSDGRRTFYGDSVK | GRGAGTFRS | 0.78 | 6 of 6 | 0 of 18
GFDLEEYGIS | VIYADGKRVAYQDAVK | GKTGGMFMV | no signal | 0 of 6 | 0 of 18
GFTLNSYGIS | VIYADGRRTFYGDSVK | GRAAGTFDN | 0.32 | 6 of 6 | 0 of 18
GFDLNEYGIS | VIYADGRRTFYSDSVK | GEVAGTFVQ | -0.21 | 6 of 6 | 0 of 18
GFTLDEYGIS | VIYADGQRTFYTDSVK | GGNAGTFDV | -0.36 | 6 of 6 | 0 of 18
GIMLNSYGIS | VIYSDGRRTFYSGSVK | GRAAATFDS | no signal | 0 of 6 | 0 of 18
GFDLNEYGIS | VIYADGMRQYYADSVK | GENAGTFDV | -0.93 | 6 of 6 | 0 of 18
GFDLDEYGIS | VIYADGKRTAYVDSVK | GNEAGTFDV | -0.61 | 6 of 6 | 0 of 18
GFTLNEYGIS | VIYSDGRRTFYQDSVK | GRAAVTFDL | no signal | 0 of 6 | 0 of 18
GFDLDEYGIS | VIYADGMRTFYQDSVK | GQNAGTFDQ | 0.48 | 6 of 6 | 0 of 18
MFDLNSYGIS | VIYSDGRRTFYGDSVK | GRTAGTFDS | 1.80 | 6 of 6 | 0 of 18
GFTLNSYGIS | VIYSDGRRTAYSDSVK | GRAAGTFDN | no signal | 0 of 6 | 0 of 18
GFDLEDYGIS | VIYADGVRTAYSDNSK | GENGGALYI | 3.38 | 2 of 6 | 0 of 18
GFDLNSYGIS | VIYSDGRRTFYLDQVK | GNTAGTFDS | 0.53 | 6 of 6 | 0 of 18
GQNLDEYGIS | VIYADGMRKWYADNVK | GISSGQVII | no signal | 0 of 6 | 0 of 18
GFTLNSYGIS | VIYSDGIRTFYGDSVK | GRAAGTSKK | no signal | 0 of 6 | 0 of 18
GFDLNEYGIS | VIYADGRRTAYGDSVK | GEVAGTFDQ | -0.60 | 6 of 6 | 0 of 18
GFDLNEYGIS | VIYADGLRTFYVDSVK | GETAGTFVS | -0.32 | 6 of 6 | 0 of 18

Second part, the sequence after the result:

log10 Kd (nM), mean | seen in | signal with controls | CDR-H1 | CDR-H2 | CDR-H3
-0.62 | 6 of 6 | 0 of 18 | GFDLNSYGIS | VIYSDGRRTAYGDRVK | GREAGTFDS
0.86 | 6 of 6 | 0 of 18 | GFSLNSYGIS | VIYSDGRRTFYGDNVK | GQAAGTFDL
-0.13 | 6 of 6 | 0 of 18 | GFDLNEYGIS | VIYADGRRTAYIDSVK | GNVAGTFDV
-0.32 | 6 of 6 | 0 of 18 | GFDLNEYGIS | VIYADGRRTAYIDSVK | GEAAGTFDN
no signal | 0 of 6 | 0 of 18 | GFTLNSYGES | VIYATGRRTFYGDSVK | GRAAGTNKS
1.20 | 6 of 6 | 0 of 18 | GFSLNSYGIS | VIYSDGRRTFYGDQVK | GRAAGTFDS
no signal | 0 of 6 | 0 of 18 | GFDLNSYGIS | VIYSDGRRTFYGDSVK | GRTAGCFNS
-0.67 | 6 of 6 | 0 of 18 | GFDLDEYGIS | VIYADGRRTFYSDSVK | GENAGTFDI
-0.56 | 6 of 6 | 1 of 18 | GFDLNEYGIS | VIYADGRRTFYSDSVK | GQTAGTFDM
0.00 | 6 of 6 | 0 of 18 | GFDLEDYGIS | VIYADGMRTAYADDVK | GENAGTFDV
-0.05 | 6 of 6 | 0 of 18 | GFDLNSYGIS | VIYSDGRRTFYADMVK | GREAGTFDS
-0.10 | 6 of 6 | 0 of 18 | GFDLNEYGIS | VIYADGRRTFYADSVK | GEAGGTFDL
no signal | 0 of 6 | 1 of 18 | GFDLLEYGIS | VIYADGMRVAYAKDVK | GMEGQFTVD
0.46 | 6 of 6 | 1 of 18 | GFSLNEYGIS | VIYSDGRRTFYADSVK | GRNAGTFDS
-0.18 | 6 of 6 | 0 of 18 | GFDLNEYGIS | VIYADGMRTFYTDSVK | GEAAGTFDA
no signal | 0 of 6 | 0 of 18 | GFDLNEYGIS | VIYADGMRTAYTDSVK | GNNAGTFDQ
-0.34 | 6 of 6 | 1 of 18 | GFDLNEYGIS | VIYADGVRTSYVDSVK | GNVAGTFDV
0.54 | 6 of 6 | 0 of 18 | GFSLNSYGIS | VIYSDGRRTFYADDVK | GRTAGTFDS
no signal | 0 of 6 | 0 of 18 | GFELNEYGIS | VIYSDGRRTFYGDSVK | GQAAGTFDA
-0.61 | 6 of 6 | 0 of 18 | GFNLDEYGIS | VIYADGRRTFYADSVK | GQVAGTFLQ
-0.12 | 6 of 6 | 0 of 18 | GFDLNEYGIS | VIYADGVRTAYADSVK | GNQAGTFDT
-0.42 | 6 of 6 | 0 of 18 | GFDLNEYGIS | VIYADGRRTAYADSVK | GENAGTFDS
-0.39 | 6 of 6 | 0 of 18 | GFDLNEYGIS | VIYADGVRQAYADSVK | GNVAGTFDT
0.70 | 6 of 6 | 2 of 18 | GFNLNSYGIS | VIYSDGRRTFYKDDVK | GNAAGTFDS
no signal | 0 of 6 | 0 of 18 | GNVLDEYGIS | VIYADGMRTSYQQNFK | GQEGDNFMT
-0.38 | 6 of 6 | 0 of 18 | GFTLNEYGIS | VIYSDGRRTFYSDSVK | GRTAGTFDS
-0.09 | 6 of 6 | 0 of 18 | GFTLNSYGIS | VIYADGRRTFYSDSVK | GYAAGTFDS
-0.05 | 6 of 6 | 0 of 18 | GFDLNEYGIS | VIYADGVRTAYVDSVK | GNQAGTFDL
no signal | 0 of 6 | 0 of 18 | GFTLNSYGIS | VIYSDGRRTFYSDSVK | GRAGTTFNS
-0.53 | 6 of 6 | 1 of 18 | GFNLDEYGIS | VIYADGRRTFYADSVK | GEAAGTFDV
2.64 | 1 of 6 | 0 of 18 | GFTLNSYGIS | VIYADGRRTFYSDSVK | GPAAGTFSS
2.11 | 1 of 6 | 0 of 18 | GFSLNSYGIS | VIYSDGRRTFYGDQVK | GKAAGTFDS
3.37 | 1 of 6 | 1 of 18 | GETLNMYGIS | VIYSDGRRTFYGDSVK | GRAAGTFDS
0.98 | 6 of 6 | 0 of 18 | GFDIEEFGIS | VIYADGIRTAYAQKVK | GTIAGTFVD
-0.51 | 6 of 6 | 0 of 18 | GFDLNEYGIS | VIYADGRRTAYADSVK | GETAGTFDM
no signal | 0 of 6 | 0 of 18 | GFQLNDYGIS | VIYSDGRRTFYGDSVK | GRHAGTFIS

Top 7 of the variants detected in all replicates, tightest first:

CDR-H1,CDR-H2,CDR-H3,"log10 Kd (nM), mean",seen in,signal with controls
GFNLNEYGIS,VIYADGRRTAYADSVK,GEHAGTFDI,-1.12,6 of 6,0 of 18
GFDLNEYGIS,VIYADGMRQYYADSVK,GENAGTFDV,-0.93,6 of 6,0 of 18
GFDLDEYGIS,VIYADGRRTFYSDSVK,GENAGTFDI,-0.67,6 of 6,0 of 18
GFDLNSYGIS,VIYSDGRRTAYGDRVK,GREAGTFDS,-0.62,6 of 6,0 of 18
GFNLDEYGIS,VIYADGRRTFYADSVK,GQVAGTFLQ,-0.61,6 of 6,0 of 18
GFDLDEYGIS,VIYADGKRTAYVDSVK,GNEAGTFDV,-0.61,6 of 6,0 of 18
GFDLNEYGIS,VIYADGRRTAYGDSVK,GEVAGTFDQ,-0.60,6 of 6,0 of 18

A sequence measured in both rounds can read differently, since the two assays cover different ranges. The parent sequence was in this pool as ten entries: three were never detected, three once, and four in most replicates, with averages from 0.34 to 2.37. Empty control strains, which show no peptide, gave a signal in 1% of pairings with all heavy chain designs; the median was 2.08 and 95% of these signals were weaker than 0.84. No background was subtracted. Also given: how often the same scFv was detected with the empty control strains.